## scFv variants of Ab-14 (heavy chain) against a SARS-CoV-2 spike peptide

Source: Li et al. 2023 (doi:10.1038/s41467-023-39022-2), MIT Lincoln Laboratory and A-Alpha Bio; data file from the FLAb repository.

All variants were tested on one target, the spike HR2 peptide PDVDLGDISGINAS (SARS-CoV-2).

Each scFv is VH, the linker GGGGSGGGGSGGGGS, VL, as in the parent Ab-14, and differs from it in the CDRs of the heavy chain only.
VH: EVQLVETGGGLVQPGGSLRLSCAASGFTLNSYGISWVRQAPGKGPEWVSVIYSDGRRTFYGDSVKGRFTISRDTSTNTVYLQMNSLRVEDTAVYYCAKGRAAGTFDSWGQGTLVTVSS
VL: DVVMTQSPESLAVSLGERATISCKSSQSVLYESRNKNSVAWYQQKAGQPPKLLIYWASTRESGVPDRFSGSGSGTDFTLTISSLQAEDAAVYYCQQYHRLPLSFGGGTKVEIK

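The parent was found by panning a naive human phage display library on the peptide. Designed CDR sequences, proposed from the first random library and measured here. Their group label is 14H_GP_Gibbs (GP: Gaussian process model; Gibbs: Gibbs sampling; a sequence that several methods proposed may carry one label only). Affinity was read by AlphaSeq, a pooled yeast mating assay with surface-displayed partners. Binding brings cells together so that they mate, and sequencing counts the barcode pairs among the diploids. A regression on co-assayed BCL2-family reference pairs converts the normalised counts of each replicate to an apparent Kd. There are six technical replicates.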

Variants are written as CDR1, CDR2 and CDR3 of the heavy chain (limits as in the source). Parent: GFTLNSYGIS, VIYSDGRRTFYGDSVK, GRAAGTFDS. Numbers give log10(Kd / nM), so 0 is 1 nM and 3 is 1 µM. Smaller is tighter. Where no diploid with the target was found in that replicate, the entry reads "nd": below detection, most likely a poor binder, though not proof of it. A sequence measured in both rounds can read differently, since the two assays cover different ranges. The authors' rule: three or more of the six replicates give a measured affinity, fewer mean a poor binder. The parent sequence was in this pool as ten entries: three were never detected, three once, and four in most replicates, with averages from 0.34 to 2.37. As a blank, each scFv also met three strains without target: over all heavy chain designs, 1% of these pairings were detected, typically at 2.08 and seldom below 0.84. The control count says in how many pairings with the empty strains this scFv gave a signal, with their mean in brackets.

{"CDR-H1": "GFSLNEYGIS", "CDR-H2": "VIYSDGRRTFYADSVK", "CDR-H3": "GRWAGTFDS", "replicates, log10 nM": "-0.46 -0.14 -0.64 -0.57 0.06 -0.31", "empty controls": "0/18"}
{"CDR-H1": "GFSLNSYGIS", "CDR-H2": "VIYSDGRRTFYTDRVK", "CDR-H3": "GREAGTFDS", "replicates, log10 nM": "0.23 -0.08 0.05 0.58 0.96 0.43", "empty controls": "0/18"}
{"CDR-H1": "GFTLNSYGIS", "CDR-H2": "VIYSDGRRTFYGDSVK", "CDR-H3": "GVLAGTFDT", "replicates, log10 nM": "1.18 0.57 0.07 0.62 0.56 1.26", "empty controls": "0/18"}
{"CDR-H1": "GFTLESYGIS", "CDR-H2": "VIYSDGRRTFYADKVK", "CDR-H3": "GRAAGTFDK", "replicates, log10 nM": "nd nd nd nd nd nd", "empty controls": "0/18"}
{"CDR-H1": "GFQLESYGIS", "CDR-H2": "VIYSDGRRTFYGDQVK", "CDR-H3": "GRTAGTFDS", "replicates, log10 nM": "nd 1.41 nd 1.29 0.78 nd", "empty controls": "0/18"}
{"CDR-H1": "HFNLNSYGIS", "CDR-H2": "VIYSDGRRTFYIDSVK", "CDR-H3": "GQAAGTFDS", "replicates, log10 nM": "nd nd nd nd nd nd", "empty controls": "0/18"}
{"CDR-H1": "KFDLNSYGIS", "CDR-H2": "VIYSDGKRTFYADSVK", "CDR-H3": "GRMAGTFDS", "replicates, log10 nM": "0.24 0.27 0.75 0.23 0.08 1.77", "empty controls": "1/18 (2.69)"}
{"CDR-H1": "GFSLNSYGIS", "CDR-H2": "VIYSDGRRTFYQDQVK", "CDR-H3": "GQTAGTFDS", "replicates, log10 nM": "nd 0.21 1.18 1.28 nd 1.38", "empty controls": "0/18"}
{"CDR-H1": "GFSLNEYGIS", "CDR-H2": "VIYSDGRRTFYGDPVK", "CDR-H3": "GRTAGTFFS", "replicates, log10 nM": "nd nd nd nd nd nd", "empty controls": "0/18"}
{"CDR-H1": "KFDLNSYGIS", "CDR-H2": "VIYSDGRRTFYGDSVK", "CDR-H3": "GQTAGTFDD", "replicates, log10 nM": "nd 1.82 1.28 1.13 0.69 2.74", "empty controls": "0/18"}
{"CDR-H1": "GFELNMYGIS", "CDR-H2": "VIYSDGRRTFYADSVK", "CDR-H3": "GRVAGTFDS", "replicates, log10 nM": "0.59 nd nd -0.18 0.00 1.29", "empty controls": "1/18 (0.97)"}
{"CDR-H1": "GFTLESYGIS", "CDR-H2": "VIYSDGRRTFYADSVK", "CDR-H3": "GRVAGTFDT", "replicates, log10 nM": "-0.08 0.87 0.85 0.31 0.57 0.68", "empty controls": "1/18 (2.37)"}
{"CDR-H1": "GFSLNSYGIS", "CDR-H2": "VIYSDGRRTFYKDSVK", "CDR-H3": "GEAAGTFDN", "replicates, log10 nM": "0.47 2.08 1.26 1.44 0.98 1.64", "empty controls": "0/18"}
{"CDR-H1": "GFTLNEYGIS", "CDR-H2": "VIYSDGRRTFYGDSVK", "CDR-H3": "GKTAGTFDL", "replicates, log10 nM": "0.83 0.56 0.13 0.11 0.24 0.49", "empty controls": "1/18 (1.86)"}
{"CDR-H1": "GFTLNSYGIS", "CDR-H2": "VIYSDGQRTFYIDSVK", "CDR-H3": "GRQAGTFDS", "replicates, log10 nM": "nd nd 2.79 1.89 2.76 1.92", "empty controls": "0/18"}
{"CDR-H1": "KFTLNSYGIS", "CDR-H2": "VIYADGRRTFYGDSVK", "CDR-H3": "GKTAGTFDS", "replicates, log10 nM": "0.81 1.19 0.59 0.93 0.62 0.88", "empty controls": "0/18"}
{"CDR-H1": "GFNLNSYGIS", "CDR-H2": "VIYSDGRRTFYEDNVK", "CDR-H3": "GRQAGTFDS", "replicates, log10 nM": "2.51 1.96 2.88 nd 2.30 1.72", "empty controls": "0/18"}
{"CDR-H1": "GFVLNEYGIS", "CDR-H2": "VIYSDGRRTFYGDSVK", "CDR-H3": "GKAAGTFDC", "replicates, log10 nM": "nd 2.47 nd nd nd 1.96", "empty controls": "1/18 (2.16)"}
{"CDR-H1": "GFDLNSYGIS", "CDR-H2": "VIYSDGRRTFYADSVK", "CDR-H3": "GREAGTFDR", "replicates, log10 nM": "-0.58 0.51 -0.41 nd 1.88 0.30", "empty controls": "0/18"}
{"CDR-H1": "GFELNEYGIS", "CDR-H2": "VIYSDGRRTFMGDSVK", "CDR-H3": "GRTAGTFDS", "replicates, log10 nM": "0.41 0.90 0.47 -0.05 0.74 0.53", "empty controls": "0/18"}
{"CDR-H1": "GFELNSYGIS", "CDR-H2": "VIYSDGRRTFYGDSVK", "CDR-H3": "GSTAGTFDF", "replicates, log10 nM": "0.31 0.31 0.22 0.21 0.32 0.56", "empty controls": "2/18 (2.75)"}
{"CDR-H1": "EFSLNSYGIS", "CDR-H2": "VIYSDGRRTFYSDSVK", "CDR-H3": "GRTAGTFDS", "replicates, log10 nM": "0.61 0.57 0.49 0.25 0.28 0.59", "empty controls": "0/18"}
{"CDR-H1": "GFQLNEYGIS", "CDR-H2": "VIYSDGRRTFYHDSVK", "CDR-H3": "GRHAGTFDS", "replicates, log10 nM": "0.57 0.51 0.65 1.32 1.11 0.41", "empty controls": "0/18"}
{"CDR-H1": "GFELDSYGIS", "CDR-H2": "VIYSDGRRTFYHDSVK", "CDR-H3": "GRTAGTFDS", "replicates, log10 nM": "0.77 0.03 -0.05 0.04 0.61 0.72", "empty controls": "0/18"}
{"CDR-H1": "GFNLNSYGIS", "CDR-H2": "VIYSDGRRTFYGDWVK", "CDR-H3": "GRQAGTFDS", "replicates, log10 nM": "nd nd nd nd nd nd", "empty controls": "0/18"}

The last 3 entries again:

{"CDR-H1": "GFQLNEYGIS", "CDR-H2": "VIYSDGRRTFYHDSVK", "CDR-H3": "GRHAGTFDS", "replicates, log10 nM": "0.57 0.51 0.65 1.32 1.11 0.41", "empty controls": "0/18"}
{"CDR-H1": "GFELDSYGIS", "CDR-H2": "VIYSDGRRTFYHDSVK", "CDR-H3": "GRTAGTFDS", "replicates, log10 nM": "0.77 0.03 -0.05 0.04 0.61 0.72", "empty controls": "0/18"}
{"CDR-H1": "GFNLNSYGIS", "CDR-H2": "VIYSDGRRTFYGDWVK", "CDR-H3": "GRQAGTFDS", "replicates, log10 nM": "nd nd nd nd nd nd", "empty controls": "0/18"}